One assay has as its system OPCs. The assay is described as follows: GC/MS-based sterol profiling in OPCs. It is filed as cell-based, mouse. The following applies: 24 h treatment (siRNA 96 h).
For the next assay, the target named is EBP (Mus musculus, UniProt P70245). Put plainly: EBP enzymatic assay (GC/MS). Type of assay: biochemical. As to conditions: 10 μM, zymostenol 25 μM.

Sequences of proteins named here, by UniProt entry; tags and fusion partners are left off. A change or cut given only in a name is not applied to a line headed by its entry.
UniProt P70245: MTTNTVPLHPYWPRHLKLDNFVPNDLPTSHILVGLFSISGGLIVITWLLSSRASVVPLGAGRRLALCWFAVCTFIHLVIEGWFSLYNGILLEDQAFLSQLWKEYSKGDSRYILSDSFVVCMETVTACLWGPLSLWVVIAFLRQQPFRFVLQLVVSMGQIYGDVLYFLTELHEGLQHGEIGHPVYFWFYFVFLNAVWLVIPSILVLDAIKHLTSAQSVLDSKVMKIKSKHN

For the substance Trans-U50488, in the assay with OPCs, the “sterol levels / sterol intermediate accumulation in OPCs” value is “induced accumulation of zymostenol and zymosterol and decreased basal sterol levels”. On EBP, the “inhibition of EBP enzymatic activity” value was “clear inhibition”.

Source of the values: US12403104B2, “Compounds and methods of promoting myelination” (Case Western Reserve University, priority 2016, dated 2025).
